# Earlier results as cited in patent US20180348222A1, “BUFADIENOLIDE FOR TREATMENT OF NON-SMALL CELL LUNG CANCER” (priority 2017, published 2018).
# Where two headings read alike, the source gives them in different places.
# Test system: HCC827, A549 and H1975 cells
# Settings: cited from earlier work
smiles,measurement,setting,value
"COc1cc2ncnc(Nc3ccc(F)c(Cl)c3)c2cc1OCCCN1CCOCC1 [Gefitinib, gefitinib]",Gefitinib sensitive,A549,Sensitive
same,Gefitinib sensitive,H1975,Resistant
same,Gefitinib sensitive,HCC827,Sensitive
